Assay results as given in ChEMBL document CHEMBL3585322, “Synthesis, enantiomeric separation and docking studies of spiropiperidine analogues as ligands of the nociceptin/orphanin FQ receptor” (2014).

By UniProt entry, the sequences of proteins in these tests, tags left out. Where a name states a change or a piece, a line headed by the entry shows the natural chain unless it says otherwise.
UniProt P41146: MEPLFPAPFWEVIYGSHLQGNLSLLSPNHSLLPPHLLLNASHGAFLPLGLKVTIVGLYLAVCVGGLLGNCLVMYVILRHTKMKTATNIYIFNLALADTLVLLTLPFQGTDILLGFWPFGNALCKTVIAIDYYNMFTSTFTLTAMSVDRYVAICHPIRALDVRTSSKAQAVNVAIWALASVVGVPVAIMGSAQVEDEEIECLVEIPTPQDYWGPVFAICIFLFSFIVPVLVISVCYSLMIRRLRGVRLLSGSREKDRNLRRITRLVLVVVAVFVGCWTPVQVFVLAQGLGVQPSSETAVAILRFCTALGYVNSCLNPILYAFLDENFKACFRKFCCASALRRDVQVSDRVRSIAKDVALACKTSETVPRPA

Assays:
[1] = molecular target: Nociceptin receptor (Homo sapiens) (UniProt P41146); test: Antagonist activity at human recombinant NOP receptor expressed in CHO cells co-expressing C-terminally modifed Gaqi5 protein assessed as inhibition of agonist response by Fluo-4AM dye based calcium mobilization assay
[2] = molecular target: Nociceptin receptor (Homo sapiens) (UniProt P41146); test: Agonist activity at human recombinant NOP receptor expressed in CHO cells co-expressing C-terminally modifed Gaqi5 protein by Fluo-4AM dye based calcium mobilization assay
[3] = molecular target: Nociceptin receptor (Homo sapiens) (UniProt P41146); test: Intrinsic activity at human recombinant NOP receptor expressed in CHO cells co-expressing C-terminally modifed Gaqi5 protein by Fluo-4AM dye based calcium mobilization assay
[4] = molecular target: Nociceptin receptor (Homo sapiens) (UniProt P41146); test: Antagonist activity at human recombinant NOP receptor expressed in CHO cells co-expressing C-terminally modifed Gaqi5 protein assessed as inhibition of agonist response up to 10 uM by Fluo-4AM dye based calcium mobilization assay
[5] = molecular target: Nociceptin receptor (Homo sapiens) (UniProt P41146); test: Agonist activity at human recombinant NOP receptor expressed in CHO cells co-expressing C-terminally modifed Gaqi5 protein up to 10 uM by Fluo-4AM dye based calcium mobilization assay
[6] = molecular target: Nociceptin receptor (Homo sapiens) (UniProt P41146); test: Agonist activity at human recombinant NOP receptor expressed in CHO cells co-expressing C-terminally modifed Gaqi5 protein at EC80 level in presence of SB-612111 by Fluo-4AM dye based calcium mobilization assay

`CS(=O)(=O)N1CCC2(CC1)CC(N1CCC3(CC1)C(=O)NCN3c1ccccc1)c1ccccc1O2` (stereo not given) was tested, and the pKb [1] was under 6 and the pEC50 [2] was “inactive”.

`O=C1NCN(c2ccccc2)C12CCN(CC1COc3ccccc3O1)CC2` (stereo not given) showed an Intrinsic activity [3] of 0.81.

`CCN1CCC2(CC1)CC(N1CCC3(CC1)C(=O)NCN3c1ccccc1)c1ccccc1O2` (stereo not given) was tested, and the inhibition [4] was “inactive” and the Activity [5] was “inactive”.

With `O=C1NCN(c2ccccc2)C12CCN(C1CCOc3cccc(F)c31)CC2` (stereo not given) the Intrinsic activity [3] was 1.

For `O=C1NCN(c2ccccc2)C12CCN(C1CC3(CCSCC3)Oc3ccccc31)CC2` (stereo not given), the pEC50 [2] was “inactive”.

With `CC1(C)COc2ccccc2C1N1CCC2(CC1)C(=O)NCN2c1ccccc1` (stereo not given) the pEC50 [2] was “inactive”.

In the case of `O=C1NCN(c2ccccc2)C12CCN([C@H]1CC3(CCNCC3)Oc3ccccc31)CC2`, the inhibition [4] is reported as “inactive” and the Activity [5] is reported as “inactive”.

For `O=C1NCN(c2ccccc2)C12CCN(C1CC3(CCOCC3)Oc3ccccc31)CC2` (stereo not given), the pEC50 [2] was “inactive”.

With `CC(=O)N1CCC2(CC1)CC(N1CCC3(CC1)C(=O)NCN3c1ccccc1)c1ccccc1O2` (stereo not given) the pEC50 [2] was “inactive”.

With `O=C1NCN(c2ccccc2)C12CCN(C1CC3(CCCCC3)Oc3ccccc31)CC2` (stereo not given) the pKb [1] was under 6 and the pEC50 [2] was “inactive”.

For `CN1CCC2(CC1)CC(N1CCC3(CC1)C(=O)NCN3c1ccccc1)c1ccccc1O2` (stereo not given), the inhibition [4] was “inactive” and the Activity [5] was “inactive”.

In the case of `CC1(C)CC(N2CCC3(CC2)C(=O)NCN3c2ccccc2)c2ccccc2O1` (stereo not given), the pEC50 [2] is reported as “inactive”.

In the case of `O=C1NCN(c2ccccc2)C12CCN(C1CC3(CCCC3)Oc3ccccc31)CC2` (stereo not given), the pEC50 [2] is reported as “inactive”.

For `O=C1NCN(c2ccccc2)C12CCN([C@H]1C[C@@H](c3ccccc3)Oc3ccccc31)CC2`, the pEC50 [2] was “inactive”.

For `O=C1NCN(c2ccccc2)C12CCN(C1CCOc3ccccc31)CC2` (stereo not given), the Intrinsic activity [3] was 1.02.

With `O=C1NCN(c2ccccc2)C12CCN([C@@H]1CCOc3ccccc31)CC2` the Activity [6] was “inactive” and the Intrinsic activity [3] was 0.98.

With `O=C1NCN(c2ccccc2)C12CCN(C1CC3(CCCCCC3)Oc3ccccc31)CC2` (stereo not given) the pEC50 [2] was “inactive”.

In the case of `O=C1NCN(c2ccccc2)C12CCN([C@H]1CCOc3ccccc31)CC2`, the Activity [6] is reported as “inactive” and the Intrinsic activity [3] is reported as 0.95.

Active and inactive are the calls of the source. The calls are words filed in the database; no cut-off is given here.
